# Measured values as given in paper PMC9692855, “Amaryllidaceae Alkaloids from Clivia miniata (Lindl.) Bosse (Amaryllidaceae): Isolation, Structural Elucidation, and Biological Activity” (Plants, 2022).
# Protein sequences, listed by entry. Tags and fused reporters are not part of them. Residues count along the entry.
# UniProt P22303, 32-614: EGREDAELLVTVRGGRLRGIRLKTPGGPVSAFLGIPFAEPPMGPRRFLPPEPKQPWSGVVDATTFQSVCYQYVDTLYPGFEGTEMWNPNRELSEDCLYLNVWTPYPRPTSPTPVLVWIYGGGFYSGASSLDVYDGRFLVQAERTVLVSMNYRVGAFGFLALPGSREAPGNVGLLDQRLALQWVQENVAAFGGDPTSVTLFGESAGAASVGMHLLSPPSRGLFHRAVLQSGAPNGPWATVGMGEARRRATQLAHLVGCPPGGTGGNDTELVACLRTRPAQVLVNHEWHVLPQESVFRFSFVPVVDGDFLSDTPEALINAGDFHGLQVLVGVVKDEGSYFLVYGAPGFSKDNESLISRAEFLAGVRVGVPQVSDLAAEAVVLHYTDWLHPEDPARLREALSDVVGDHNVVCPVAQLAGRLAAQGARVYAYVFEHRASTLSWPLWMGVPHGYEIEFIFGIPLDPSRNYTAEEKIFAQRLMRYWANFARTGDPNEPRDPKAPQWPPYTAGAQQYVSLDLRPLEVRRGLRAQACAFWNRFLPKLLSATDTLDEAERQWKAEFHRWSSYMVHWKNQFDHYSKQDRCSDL
# UniProt P06276, 29-602: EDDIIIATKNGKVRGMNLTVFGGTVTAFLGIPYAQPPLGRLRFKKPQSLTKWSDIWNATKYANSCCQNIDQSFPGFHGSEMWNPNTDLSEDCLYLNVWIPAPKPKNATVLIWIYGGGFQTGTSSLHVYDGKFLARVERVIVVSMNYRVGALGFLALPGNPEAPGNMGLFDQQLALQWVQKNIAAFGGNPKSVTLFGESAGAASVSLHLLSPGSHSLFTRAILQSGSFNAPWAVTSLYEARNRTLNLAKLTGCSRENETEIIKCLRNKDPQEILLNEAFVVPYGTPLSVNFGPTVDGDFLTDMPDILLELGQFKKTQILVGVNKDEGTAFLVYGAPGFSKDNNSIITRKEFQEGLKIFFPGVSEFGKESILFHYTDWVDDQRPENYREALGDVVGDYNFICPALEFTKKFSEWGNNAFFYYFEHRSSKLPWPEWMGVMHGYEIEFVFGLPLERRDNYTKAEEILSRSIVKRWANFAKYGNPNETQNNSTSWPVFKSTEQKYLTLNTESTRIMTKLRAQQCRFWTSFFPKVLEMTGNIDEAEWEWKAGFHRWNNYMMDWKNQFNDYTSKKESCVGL
# Experiments:
# [1] = molecular target: human recombinant AChE (E.C. 3.1.1.7) (Homo sapiens, UniProt P22303); assay type: biochemical; details: 100 µM
# [2] = molecular target: human plasma BuChE (E.C. 3.1.1.8) (Homo sapiens, UniProt P06276); assay type: biochemical; details: tested at 100 µM compound concentration
smiles,measurement,setting,value
"CNC(=O)Oc1ccc2c(c1)[C@]1(C)CCN(C)[C@@H]1N2C [eserine, reference compound]",% Inhibition hAChE ± SEM,[1],99.98 ± 0.02%
same,% Inhibition hBuChE ± SEM,[2],99.78 ± 0.04%
